Measurements reported in ChEMBL document CHEMBL5113485, “Distal kinetic deuterium isotope effect: Phenyl ring deuteration attenuates N-demethylation of Lu AF35700” (Bioorg Med Chem Lett, 2022).

By UniProt entry, the sequences of proteins in these tests, tags left out.
UniProt P14416, whole entry: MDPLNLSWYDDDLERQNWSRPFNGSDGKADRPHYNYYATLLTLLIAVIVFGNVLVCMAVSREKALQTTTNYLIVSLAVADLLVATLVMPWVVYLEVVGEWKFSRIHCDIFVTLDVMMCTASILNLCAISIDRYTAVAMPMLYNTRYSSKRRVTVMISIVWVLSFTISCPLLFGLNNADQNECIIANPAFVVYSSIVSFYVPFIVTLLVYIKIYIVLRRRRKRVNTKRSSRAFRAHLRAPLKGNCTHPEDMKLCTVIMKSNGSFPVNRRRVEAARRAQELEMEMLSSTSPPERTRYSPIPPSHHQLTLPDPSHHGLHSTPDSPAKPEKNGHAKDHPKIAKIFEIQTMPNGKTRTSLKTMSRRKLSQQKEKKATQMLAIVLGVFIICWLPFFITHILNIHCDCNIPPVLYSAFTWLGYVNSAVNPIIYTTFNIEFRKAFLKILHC

Molecular target: D(2) dopamine receptor (Homo sapiens, UniProt P14416)
Assay: Displacement of [3H]7-OH-DPAT from recombinant human D2S receptor measured after 60 mins by scintillation counting analysis

- Ki: 4.1 nM
SMILES: [2H]c1c([2H])c([2H])c([C@@H]2C[C@@H](N3CCN(C([2H])([2H])[2H])C(C)(C)C3)c3cc(Cl)ccc32)c([2H])c1[2H]
